Data on one molecule can be found in patent US9512125B2, “Substituted pyrazolo[3.4-D] pyrimidines as anti-inflammatory agents” (THE REGENTS OF THE UNIVERSITY OF CALIFORNIA, priority 2004, dated 2016).

This experiment deals with HUVEC with or without PBMC (3C, 4H, SAG and LPS systems). Nature of the experiment: BioMAP inflammation model systems (3C, 4H, SAG, LPS), cell-based ELISA profiling. A general note: ELISA stands for enzyme-linked immunosorbent assay.

`Cc1ccc(-c2nn(C(C)(C)C)c3ncnc(N)c23)cc1` [Compound 13, PP1, reference compound]: the result was active.
